Experimental findings from patent US8268848B2, “Cyclopropane compound” (Eisai R&D Management Co., Ltd., priority 2010, dated 2012) are described below.

By UniProt entry, the sequences of proteins in these tests, tags left out.
UniProt O43613, whole entry: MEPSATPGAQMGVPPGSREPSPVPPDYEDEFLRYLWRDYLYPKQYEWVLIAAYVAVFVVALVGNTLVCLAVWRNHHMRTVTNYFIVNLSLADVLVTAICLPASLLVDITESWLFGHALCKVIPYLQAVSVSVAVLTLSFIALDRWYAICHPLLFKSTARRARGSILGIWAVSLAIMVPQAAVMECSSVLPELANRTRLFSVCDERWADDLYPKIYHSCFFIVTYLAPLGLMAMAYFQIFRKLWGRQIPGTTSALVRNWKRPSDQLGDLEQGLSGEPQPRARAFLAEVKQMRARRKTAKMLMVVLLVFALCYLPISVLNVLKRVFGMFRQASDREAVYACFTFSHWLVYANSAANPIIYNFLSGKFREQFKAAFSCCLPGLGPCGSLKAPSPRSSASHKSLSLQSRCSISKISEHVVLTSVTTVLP
UniProt O43614, whole entry: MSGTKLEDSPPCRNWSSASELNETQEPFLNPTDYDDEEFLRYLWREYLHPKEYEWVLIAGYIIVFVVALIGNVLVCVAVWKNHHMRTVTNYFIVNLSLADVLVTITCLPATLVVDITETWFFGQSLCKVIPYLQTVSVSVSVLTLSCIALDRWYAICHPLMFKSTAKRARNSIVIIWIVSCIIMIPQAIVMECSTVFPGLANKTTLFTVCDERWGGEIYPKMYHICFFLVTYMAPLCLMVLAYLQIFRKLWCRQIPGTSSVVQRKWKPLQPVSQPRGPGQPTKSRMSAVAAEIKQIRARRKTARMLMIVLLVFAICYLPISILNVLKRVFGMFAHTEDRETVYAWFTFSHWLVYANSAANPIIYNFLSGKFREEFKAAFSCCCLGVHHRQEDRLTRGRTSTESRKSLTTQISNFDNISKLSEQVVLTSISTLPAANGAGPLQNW

In one assay the target is OX1 (Homo sapiens, UniProt O43613). In words: Measurement of orexin receptor-binding ability ([125I]-OX-A, cell membranes, OX1). To be noted: read-out: OX1 (IC50) nM; membranes of recombinant CHO cells expressing OX1, 0.2 nM [125I]-OX-A.
Another assay deals with OX2 (Homo sapiens, UniProt O43614). In words: Measurement of orexin receptor-binding ability ([125I]-OX-A, cell membranes, OX2). To be noted: read-out: OX2 (IC50) nM; membranes of recombinant CHO cells expressing OX2, 0.2 nM [125I]-OX-A.

Broadly, the IC50 is the point on the concentration scale where inhibition reaches its midpoint. For the compound `Cc1ncc(OCC2(c3cccc(F)c3)CC2C(=O)Nc2ccc(Cl)cn2)c(C)n1` (stereo not drawn), the IC50 on OX1 turned out to be 18 nM; on OX2 it was 10 nM.
On to `Cc1ncc(OC[C@@]2(c3ccc(F)cc3)C[C@H]2C(=O)Nc2cc(Cl)ccn2)c(C)n1`, for which, at OX2, the IC50 is 73 nM.
